Source: patent publication US20150010932A1, “METHODS FOR ASSAYING PROTEIN-PROTEIN INTERACTIONS” (Salk Institute for Biological Studies, priority 2013, published 2015)

Chains of the proteins cited; added tags and fusions are not shown. Residues count along the entry.
UniProt Q00987, 2-108 limits assumed: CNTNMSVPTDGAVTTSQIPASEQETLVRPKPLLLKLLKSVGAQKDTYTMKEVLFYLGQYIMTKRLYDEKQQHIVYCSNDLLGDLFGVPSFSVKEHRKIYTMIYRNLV
UniProt O15151, 2-111 limits assumed: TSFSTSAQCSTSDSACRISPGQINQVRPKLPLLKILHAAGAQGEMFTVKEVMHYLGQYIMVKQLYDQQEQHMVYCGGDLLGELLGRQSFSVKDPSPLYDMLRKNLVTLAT

Columns and labels:
[1] = test system: Normal human fibroblasts (WS1 cells); test: Lactate dehydrogenase (LDH) leakage assay, WS1 fibroblasts; type: cell-based; conditions: 25 μM and 10 μM, 6 hours, no serum
[2] = target: T1, p53-Mdm2 complexes (Homo sapiens, UniProt Q00987); test: BiLC assay using cell lysates, p53-Mdm2; type: biochemical
[3] = test system: Saos-2 cells; test: Lactate dehydrogenase (LDH) leakage assay, Saos-2 cells; conditions: 25 μM and 10 μM, 6 hours, no serum
[4] = target: T2, p53-Mdm4 complexes (Homo sapiens, UniProt O15151); test: BiLC assay using cell lysates, p53-Mdm4; type: biochemical
[5] = target: T2, p53-Mdm4 complexes; test: Real-time BiLC (ReBiL) assay in living cells, p53-Mdm4 reporter (Saos-2 134-354); conditions: Saos-2 134-354, doxycycline withdrawal; for Disruption of pre-formed p53-Mdm4 complexes in living cells, 10% FBS: SAH peptide protocol, 10% FBS media
[6] = target: T1, p53-Mdm2 complexes; test: Real-time BiLC (ReBiL) assay in living cells, p53-Mdm2 reporter (Saos-2 134-385); type: cell-based

## CC(=O)N[C@@H](CC(C)C)C(=O)N[C@H](C(=O)N[C@@H](Cc1ccccc1)C(=O)N[C@]1(C)CCCCCCC=CCCC[C@@](C)(C(=O)N[C@@H](CO)C(=O)N[C@@H](C)C(=O)N[C@@H](C)C(N)=O)NC(=O)[C@H](CC2CCC2)NC(=O)[C@H](CCC(N)=O)NC(=O)[C@H](C)NC(=O)[C@H](Cc2c[nH]c3ccccc23)NC(=O)[C@H](Cc2ccc(O)cc2)NC(=O)[C@H](CCC(=O)O)NC1=O)[C@@H](C)O
[1]
  LDH leakage (cell membrane damage), absence of serum: cause LDH leakage
[2]; 10% FBS added
  p53-Mdm2 disruption in lysate BiLC assay, 10% FBS: did not reduce the potency
[2]; no FBS
  p53-Mdm2 disruption in lysate BiLC assay, without FBS: potent
[3]
  LDH leakage (cell membrane damage), absence of serum: cause LDH leakage
[4]; 10% FBS added
  p53-Mdm4 disruption in lysate BiLC assay, 10% FBS: did not reduce the potency
[4]; no FBS
  p53-Mdm4 disruption in lysate BiLC assay, without FBS: potent
[5]
  Disruption of pre-formed p53-Mdm4 complexes in living cells, 10% FBS: only marginal activity
[5]; listed as ATSP-704125
  Disruption of pre-formed p53-Mdm4 complexes in living cells, 10% FBS: reduced the effectiveness
[5]; media lacking serum
  Disruption of pre-formed p53-Mdm4 complexes in living cells, without serum: increased activity
[6]; Saos-2 134-385, doxycycline withdrawal, SAH peptide protocol, 10% FBS media
  Disruption of pre-formed p53-Mdm2 complexes in living cells, 10% FBS: reduced the effectiveness
[6]; Saos-2 134-385, doxycycline withdrawal, media lacking serum
  Disruption of pre-formed p53-Mdm2 complexes in living cells, without serum: increased activity
[6]; living Saos-2 cells, 10 μM, 10% FBS (FIG. 3A, 3B)
  Time to reach full p53-Mdm2 inhibition: 4 h
